The series can be described thus: pH of exemplary salts with respect to concentration (% w/v). It counts as physicochemical.

`Cc1cccc(C)c1NC(=O)C1CCCCN1C.O=C1NS(=O)(=O)c2ccccc21` (stereo not shown) [Mepivacaine saccharinate, Mepivacaine Saccharinate]: the pH worked out at 3.95.
